These molecules were tested on HLA-A3 supertype molecules (assay: HLA-A3 supertype cross-binding (A*0301, A*1101, A*3101, A*3301, A*6801)). Settings: Table 16a, CEA-derived.
With `CC(C)C[C@H](NC(=O)[C@@H](NC(=O)[C@@H](N)CCCNC(=N)N)C(C)C)C(=O)N[C@H](C(=O)N[C@@H](CC(C)C)C(=O)N[C@@H](Cc1ccccc1)C(=O)N[C@@H](CC(N)=O)C(=O)N[C@H](C(=O)N[C@H](C(=O)N[C@@H](CCCNC(=N)N)C(=O)O)[C@@H](C)O)C(C)C)[C@@H](C)O` [compound 53] the “Number of A3 alleles crossbound” value was 4.
`CC[C@H](C)[C@H](NC(=O)[C@H](Cc1ccccc1)NC(=O)[C@H](CC(C)C)NC(=O)[C@@H](NC(=O)[C@H](CCC(N)=O)NC(=O)[C@@H](NC(=O)[C@@H](N)Cc1c[nH]cn1)[C@@H](C)O)C(C)C)C(=O)N[C@@H](C)C(=O)N[C@@H](CCCCN)C(=O)O` [compound 54] was tested, and the “Number of A3 alleles crossbound” value was 4.
In the case of `CC(C)C[C@H](NC(=O)[C@H](CC(N)=O)NC(=O)[C@H](CO)NC(=O)[C@@H](NC(=O)[C@@H](N)Cc1ccccc1)C(C)C)C(=O)N[C@@H](C)C(=O)N[C@H](C(=O)NCC(=O)N[C@@H](CCCNC(=N)N)C(=O)O)[C@@H](C)O` [compound 55], the “Number of A3 alleles crossbound” value is reported as 4.

Same assay, conditions: Table 16b, Her2/neu-derived
For `CC[C@H](C)[C@H](NC(=O)CNC(=O)[C@H](Cc1ccccc1)NC(=O)[C@@H](NC(=O)CN)C(C)C)C(=O)N[C@@H](CC(C)C)C(=O)N[C@H](C(=O)N[C@@H](CCCCN)C(=O)N[C@@H](CCCNC(=N)N)C(=O)O)[C@@H](C)CC` [compound 56], the “Number of A3 alleles crossbound” value was 3.
With `CC[C@H](C)[C@H](NC(=O)CNC(=O)[C@H](Cc1ccccc1)NC(=O)[C@@H](NC(=O)[C@@H](N)C(C)C)C(C)C)C(=O)N[C@@H](CC(C)C)C(=O)N[C@H](C(=O)N[C@@H](CCCCN)C(=O)N[C@@H](CCCNC(=N)N)C(=O)N[C@@H](CCCNC(=N)N)C(=O)O)[C@@H](C)CC` [compound 58] the “Number of A3 alleles crossbound” value was 4.
In the case of `CC[C@H](C)[C@H](NC(=O)CNC(=O)[C@H](Cc1ccccc1)NC(=O)[C@@H](NC(=O)[C@@H](N)C(C)C)C(C)C)C(=O)N[C@@H](CC(C)C)C(=O)N[C@H](C(=O)N[C@@H](CCCCN)C(=O)N[C@@H](CCCCN)C(=O)N[C@@H](CS)C(=O)O)[C@@H](C)CC` [compound 59], the “Number of A3 alleles crossbound” value is reported as 3.
With `CC[C@H](C)[C@H](NC(=O)[C@@H](N)CCCCN)C(=O)N[C@@H](CCCNC(=N)N)C(=O)N[C@@H](CCCCN)C(=O)N[C@@H](Cc1ccc(O)cc1)C(=O)N[C@H](C(=O)N[C@@H](CCSC)C(=O)N[C@@H](CCCNC(=N)N)C(=O)N[C@@H](CCCCN)C(=O)O)[C@@H](C)O` [compound 61] the “Number of A3 alleles crossbound” value was 1.

Same assay, conditions: Table 16c, Mage2/3-derived
`CC[C@H](C)[C@H](NC(=O)[C@@H](NC(=O)[C@@H](NC(=O)[C@H](CO)NC(=O)[C@H](Cc1ccccc1)NC(=O)[C@H](CO)NC(=O)[C@@H](N)CO)[C@@H](C)O)[C@@H](C)O)C(=O)N[C@@H](CC(N)=O)C(=O)N[C@@H](Cc1ccc(O)cc1)C(=O)O` [compound 76] was tested, and the “Number of A3 alleles crossbound” value was 1.
In the case of `CC[C@H](C)[C@H](NC(=O)[C@@H](NC(=O)[C@@H](NC(=O)[C@H](CO)NC(=O)[C@H](Cc1ccccc1)NC(=O)[C@H](CO)NC(=O)[C@@H](N)CO)[C@@H](C)O)[C@@H](C)O)C(=O)N[C@@H](CC(N)=O)C(=O)N[C@@H](CCCCN)C(=O)O` [compound 77], the “Number of A3 alleles crossbound” value is reported as 3.
`CC[C@H](C)[C@H](NC(=O)[C@@H](NC(=O)[C@@H](NC(=O)[C@H](CO)NC(=O)[C@H](Cc1ccccc1)NC(=O)[C@@H](NC(=O)[C@@H](N)CO)C(C)C)[C@@H](C)O)[C@@H](C)O)C(=O)N[C@@H](CC(N)=O)C(=O)N[C@@H](CCCCN)C(=O)O` [compound 78] was tested, and the “Number of A3 alleles crossbound” value was 3.
`CC[C@H](C)[C@H](NC(=O)[C@@H](NC(=O)[C@@H](NC(=O)[C@H](CO)NC(=O)[C@H](Cc1ccccc1)NC(=O)[C@@H](NC(=O)[C@@H](N)CO)C(C)C)[C@@H](C)O)[C@@H](C)O)C(=O)N[C@@H](CC(N)=O)C(=O)N[C@@H](CCCNC(=N)N)C(=O)O` [compound 79] was tested, and the “Number of A3 alleles crossbound” value was 5.
In the case of `CC[C@H](C)[C@H](NC(=O)[C@@H](NC(=O)[C@@H](NC(=O)[C@@H](N)CO)[C@@H](C)O)[C@@H](C)O)C(=O)N[C@@H](CC(N)=O)C(=O)N[C@@H](Cc1ccc(O)cc1)C(=O)N[C@H](C(=O)N[C@@H](CC(C)C)C(=O)N[C@@H](Cc1c[nH]c2ccccc12)C(=O)N[C@@H](CCCCN)C(=O)O)[C@@H](C)O` [compound 81], the “Number of A3 alleles crossbound” value is reported as 3.
With `CC[C@H](C)[C@H](NC(=O)[C@@H](NC(=O)[C@@H](N)[C@@H](C)O)C(C)C)C(=O)N[C@@H](CC(N)=O)C(=O)N[C@@H](Cc1ccc(O)cc1)C(=O)N[C@H](C(=O)N[C@@H](CC(C)C)C(=O)N[C@@H](Cc1c[nH]c2ccccc12)C(=O)N[C@@H](CCCNC(=N)N)C(=O)O)[C@@H](C)O` [compound 83] the “Number of A3 alleles crossbound” value was 4.
`CC[C@H](C)[C@H](NC(=O)[C@@H](NC(=O)[C@@H](N)[C@@H](C)O)C(C)C)C(=O)N[C@@H](CC(N)=O)C(=O)N[C@@H](Cc1ccc(O)cc1)C(=O)N[C@H](C(=O)N[C@@H](CC(C)C)C(=O)N[C@@H](Cc1c[nH]c2ccccc12)C(=O)N[C@@H](CCCCN)C(=O)O)[C@@H](C)O` [compound 84] was tested, and the “Number of A3 alleles crossbound” value was 3.
With `CC(C)C[C@H](NC(=O)[C@H](CC(C)C)NC(=O)[C@H](CC(C)C)NC(=O)[C@H](Cc1ccccc1)NC(=O)[C@H](Cc1c[nH]cn1)NC(=O)[C@@H](NC(=O)[C@@H](N)CC(C)C)C(C)C)C(=O)N[C@@H](CCCCN)C(=O)O` [compound 85] the “Number of A3 alleles crossbound” value was 3.
`CC(C)C[C@H](NC(=O)[C@H](CC(C)C)NC(=O)[C@H](CC(C)C)NC(=O)[C@H](Cc1ccccc1)NC(=O)[C@H](Cc1c[nH]cn1)NC(=O)[C@@H](NC(=O)[C@@H](N)CC(C)C)C(C)C)C(=O)N[C@@H](CCCCN)C(=O)N[C@@H](Cc1ccc(O)cc1)C(=O)O` [compound 86] was tested, and the “Number of A3 alleles crossbound” value was 2.
`CC(C)C[C@H](NC(=O)[C@H](CC(C)C)NC(=O)[C@H](CC(C)C)NC(=O)[C@H](Cc1ccccc1)NC(=O)[C@H](Cc1c[nH]cn1)NC(=O)[C@@H](NC(=O)[C@@H](N)CC(C)C)C(C)C)C(=O)N[C@@H](CCCCN)C(=O)N[C@@H](CCCCN)C(=O)O` [compound 87] was tested, and the “Number of A3 alleles crossbound” value was 3.
In the case of `CC(C)C[C@H](NC(=O)[C@H](CC(C)C)NC(=O)[C@H](CC(C)C)NC(=O)[C@H](Cc1ccccc1)NC(=O)[C@H](Cc1c[nH]cn1)NC(=O)[C@@H](NC(=O)[C@@H](N)CC(C)C)C(C)C)C(=O)N[C@@H](CCCCN)C(=O)N[C@@H](CCCNC(=N)N)C(=O)O` [compound 88], the “Number of A3 alleles crossbound” value is reported as 5.
With `CSCC[C@H](NC(=O)[C@@H](N)CO)C(=O)N[C@@H](CC(C)C)C(=O)N[C@@H](CCC(=O)O)C(=O)N[C@H](C(=O)N[C@@H](Cc1ccccc1)C(=O)N[C@@H](CCC(=O)O)C(=O)NCC(=O)N[C@@H](CCCNC(=N)N)C(=O)O)C(C)C` [compound 89] the “Number of A3 alleles crossbound” value was 3.
In the case of `CSCC[C@H](NC(=O)[C@@H](N)CO)C(=O)N[C@@H](CC(C)C)C(=O)N[C@@H](CCC(=O)O)C(=O)N[C@H](C(=O)N[C@@H](Cc1ccccc1)C(=O)N[C@@H](CCC(=O)O)C(=O)NCC(=O)N[C@@H](CCCCN)C(=O)O)C(C)C` [compound 90], the “Number of A3 alleles crossbound” value is reported as 4.
`CC(C)[C@H](NC(=O)[C@@H](N)CO)C(=O)N[C@@H](Cc1ccccc1)C(=O)N[C@@H](C)C(=O)N[C@@H](Cc1c[nH]cn1)C(=O)N1CCC[C@H]1C(=O)N[C@@H](CCCNC(=N)N)C(=O)N[C@@H](CCCCN)C(=O)O` [compound 91] was tested, and the “Number of A3 alleles crossbound” value was 3.
`CC[C@H](C)[C@H](NC(=O)[C@@H](NC(=O)[C@H](C)N)C(C)C)C(=O)N[C@@H](CCC(=O)O)C(=O)N[C@H](C(=O)N[C@@H](CO)C(=O)N[C@@H](Cc1ccc(O)cc1)C(=O)N[C@H](C(=O)N[C@@H](CCCCN)C(=O)O)C(C)C)[C@@H](C)O` [compound 93] was tested, and the “Number of A3 alleles crossbound” value was 3.
With `CC[C@H](C)[C@H](NC(=O)[C@@H](NC(=O)[C@H](C)N)C(C)C)C(=O)N[C@@H](CCC(=O)O)C(=O)N[C@H](C(=O)N[C@@H](CO)C(=O)N[C@@H](Cc1ccc(O)cc1)C(=O)N[C@H](C(=O)N[C@@H](CCCNC(=N)N)C(=O)O)C(C)C)[C@@H](C)O` [compound 94] the “Number of A3 alleles crossbound” value was 3.
`CC[C@H](C)[C@H](N)C(=O)N[C@H](C(=O)N[C@@H](Cc1ccc(O)cc1)C(=O)N1CCC[C@H]1C(=O)N1CCC[C@H]1C(=O)N[C@@H](CC(C)C)C(=O)N[C@@H](Cc1c[nH]cn1)C(=O)N[C@@H](CCC(=O)O)C(=O)N[C@@H](CCCNC(=N)N)C(=O)O)C(C)C` [compound 96] was tested, and the “Number of A3 alleles crossbound” value was 5.
For `CC[C@H](C)[C@H](N)C(=O)N[C@H](C(=O)N[C@@H](Cc1ccc(O)cc1)C(=O)N1CCC[C@H]1C(=O)N1CCC[C@H]1C(=O)N[C@@H](CC(C)C)C(=O)N[C@@H](Cc1c[nH]cn1)C(=O)N[C@@H](CCC(=O)O)C(=O)N[C@@H](CCCCN)C(=O)O)C(C)C` [compound 97], the “Number of A3 alleles crossbound” value was 3.
`CC[C@H](C)[C@H](NC(=O)[C@@H](NC(=O)[C@@H]1CCCN1C(=O)[C@H](Cc1ccccc1)NC(=O)[C@H](Cc1ccccc1)NC(=O)[C@@H](N)Cc1ccc(O)cc1)C(C)C)C(=O)N[C@@H](Cc1ccccc1)C(=O)N[C@@H](CO)C(=O)N[C@@H](CCCCN)C(=O)O` [compound 98] was tested, and the “Number of A3 alleles crossbound” value was 3.
In the case of `CC[C@H](C)[C@H](NC(=O)[C@H](CCC(N)=O)NC(=O)[C@H](CC(N)=O)NC(=O)[C@H](CC(=O)O)NC(=O)CNC(=O)[C@H](CC(C)C)NC(=O)[C@@H](N)CC(C)C)C(=O)N[C@@H](CCSC)C(=O)N1CCC[C@H]1C(=O)N[C@@H](CCCCN)C(=O)O` [compound 101], the “Number of A3 alleles crossbound” value is reported as 3.
In the case of `CC(C)C[C@H](NC(=O)[C@@H](NC(=O)[C@@H](N)CO)C(C)C)C(=O)N[C@@H](CCC(=O)O)C(=O)N[C@H](C(=O)N[C@@H](Cc1ccccc1)C(=O)N[C@@H](CCC(=O)O)C(=O)NCC(=O)N[C@@H](CCCNC(=N)N)C(=O)O)C(C)C` [compound 102], the “Number of A3 alleles crossbound” value is reported as 4.
In the case of `CC(C)C[C@H](NC(=O)[C@@H](NC(=O)[C@@H](N)CO)C(C)C)C(=O)N[C@@H](CCC(=O)O)C(=O)N[C@H](C(=O)N[C@@H](Cc1ccccc1)C(=O)N[C@@H](CCC(=O)O)C(=O)NCC(=O)N[C@@H](CCCCN)C(=O)O)C(C)C` [compound 103], the “Number of A3 alleles crossbound” value is reported as 5.

Same assay, conditions: Table 16d, p53-derived
For `CC(C)[C@H](NC(=O)[C@@H](N)CCCCN)C(=O)N[C@@H](Cc1ccc(O)cc1)C(=O)N[C@@H](CCC(N)=O)C(=O)NCC(=O)N[C@@H](CO)C(=O)N[C@@H](Cc1ccc(O)cc1)C(=O)NCC(=O)N[C@@H](Cc1ccccc1)C(=O)N[C@@H](CCCNC(=N)N)C(=O)O` [compound 105], the “Number of A3 alleles crossbound” value was 4.

Reference: patent US20060094649A1, “Hla-a1,-a2,-a3,-a24,-b7, and-b44 tumor associated antigen peptides and compositions” (priority 2002, published 2006)
